System: Toxoplasma gondii
Experiment: microbe, parasite or virus in culture

SMILES | EC50 [µM]
CC(C)(C)n1nc(-c2cnc3ccccc3c2)c(C(N)=O)c1N | 1.1
NC(=O)c1c(-c2ccc3ccccc3c2)nn(CC(F)(F)F)c1N | 0.26
CC(C)(C)Cn1nc(-c2ccc3ccccc3c2)c(C(N)=O)c1N | 0.32
CCOc1ccc2cc(-c3nn(C(C)(C)C)c(N)c3C(N)=O)ccc2c1 | 0.39
COc1ccc2cc(-c3nn(C(C)(C)C)c(N)c3C(N)=O)ccc2c1 | 0.072

— ChEMBL document CHEMBL3108667, “Potent and selective inhibitors of CDPK1 from T. gondii and C. parvum based on a 5-aminopyrazole-4-carboxamide scaffold” (ACS Med Chem Lett, 2014)
